Experimental data reported in ChEMBL document CHEMBL5550216, “Discovery of Triazolopyrimidine Derivatives as Selective P2X3 Receptor Antagonists Binding to an Unprecedented Allosteric Site as Evidenced by Cryo-Electron Microscopy” (J Med Chem, 2024).

By UniProt entry, the sequences of proteins in these tests, tags left out. Where a name states a change or a piece, a line headed by the entry shows the natural chain unless it says otherwise.
UniProt Q99572: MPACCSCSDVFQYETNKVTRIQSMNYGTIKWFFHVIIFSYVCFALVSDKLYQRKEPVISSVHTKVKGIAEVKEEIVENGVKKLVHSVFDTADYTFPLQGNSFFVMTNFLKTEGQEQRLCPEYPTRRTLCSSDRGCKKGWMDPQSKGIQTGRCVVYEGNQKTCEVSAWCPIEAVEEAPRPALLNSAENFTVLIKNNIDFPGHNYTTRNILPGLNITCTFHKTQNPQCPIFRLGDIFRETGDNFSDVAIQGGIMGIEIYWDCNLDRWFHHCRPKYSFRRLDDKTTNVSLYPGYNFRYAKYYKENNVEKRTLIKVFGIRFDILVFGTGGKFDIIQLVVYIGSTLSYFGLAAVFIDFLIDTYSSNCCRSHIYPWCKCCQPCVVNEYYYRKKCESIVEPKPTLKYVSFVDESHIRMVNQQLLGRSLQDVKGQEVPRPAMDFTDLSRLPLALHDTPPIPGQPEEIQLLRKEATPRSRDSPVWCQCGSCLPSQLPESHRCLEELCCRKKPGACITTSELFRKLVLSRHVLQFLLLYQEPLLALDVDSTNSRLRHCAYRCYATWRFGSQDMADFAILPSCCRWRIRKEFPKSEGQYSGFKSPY

Legend:
[1] = target: T1, P2X purinoceptor 4 (Homo sapiens) (UniProt Q99571); assay: Antagonist activity at human P2X4 receptor expressed in 1321N1 cells at 10 uM incubated for 30 mins in presence of ATP by Fluo-4 dye based microplate reader assay relative to control; assay type: cell-based; parameters: scale not given: the % may be the effect or the level left
T1 sequence (whole entry): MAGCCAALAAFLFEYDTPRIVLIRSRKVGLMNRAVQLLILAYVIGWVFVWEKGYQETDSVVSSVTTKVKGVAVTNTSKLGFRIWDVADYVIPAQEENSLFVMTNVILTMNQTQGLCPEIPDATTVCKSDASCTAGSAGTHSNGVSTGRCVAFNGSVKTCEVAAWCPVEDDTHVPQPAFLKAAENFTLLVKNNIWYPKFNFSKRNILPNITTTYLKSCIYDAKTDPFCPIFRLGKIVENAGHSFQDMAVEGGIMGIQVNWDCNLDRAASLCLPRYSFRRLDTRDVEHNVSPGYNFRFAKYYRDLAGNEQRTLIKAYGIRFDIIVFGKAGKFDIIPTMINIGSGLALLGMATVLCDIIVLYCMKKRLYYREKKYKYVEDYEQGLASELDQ

P2X purinoceptor 7 = P2X purinoceptor 7 (Homo sapiens, UniProt Q99572); assay: Antagonist activity at human P2X7 receptor expressed in 1321N1 cells at 10 uM incubated for 30 mins in presence of ATP by Fluo-4 dye based microplate reader assay relative to control; assay type: cell-based; parameters: scale not given: the % may be the effect or the level left

For `C[C@@H](Nc1cc(N2CCN(C(N)=O)CC2)nc2nc(C3CC3)nn12)c1ccc2ccccc2c1`, the Activity [1] was 33% and the Activity (P2X purinoceptor 7) was 11%.
